In publication PMC6651196, “Preclinical Evaluation of Radiolabeled Peptides for PET Imaging of Glioblastoma Multiforme” (Molecules, 2019):

Test system: U-87 MG tumor SCID mouse
Conditions: female, in vivo

## OC[C@H]1OC(O)[C@H](F)[C@@H](O)[C@@H]1O (stereo partly shown) [^18F-FDG, ^18F-fluorodeoxyglucose]
  Accumulation in non-targeted tissues: 1–8 % ID/g
